Where two headings read alike, the source gives them in different places.
Target: human dopamine D2 (Long form) receptor (Homo sapiens, UniProt P14416)
Assay: D2 dopamine receptor binding assay ([3H]spiperone, membranes of CHO K1 cells)
Source text: A cell line expressing human dopamine D2 (Long form) receptors was purchased from Oregon Health Sciences University, Portland, Oreg. The D2 receptor cDNA was subcloned into an expression vector, pRc/CMV. The plasmids were transfected by electroporation into CHO K1 cells. A single stable transfectant, resistant to the antibiotic G418, was isolated and selected for use in the binding studies. For D4 binding, CHO K1 cells stably transfected to express the human recombinant dopamine D4.2 receptor subtype, as described by Shih, et al., "The Expression and Functional Characterization of Human Dopamine D4.2 Receptor in CHO K1 Cells," Soc. Neurosci., 21(Part 1): 621 (1995). […]
After 60 minutes incubation at 25° C., the incubations were terminated by rapid filtration through Whatmann GF/B glass fibre filters (soaked for 1 hour in 0.5% polyethylenimine) on a cell harvester, with three washes of 1 mL ice-cold buffer. Individual filter disks containing the bound ligand were placed in counting vials with 4 mL of scintillation fluid (Ready Gel, Beckman Instrument Inc., Fullerton, Calif.) and then counted in a Beckman LS-6800 liquid scintillation counter at an efficiency of 45%. […]
Saturation and competition binding data were analyzed using an iterative nonlinear least-square curve-fitting Ligand program. […]

Chains of the proteins cited; added tags and fusions are not shown.
UniProt P14416, whole entry: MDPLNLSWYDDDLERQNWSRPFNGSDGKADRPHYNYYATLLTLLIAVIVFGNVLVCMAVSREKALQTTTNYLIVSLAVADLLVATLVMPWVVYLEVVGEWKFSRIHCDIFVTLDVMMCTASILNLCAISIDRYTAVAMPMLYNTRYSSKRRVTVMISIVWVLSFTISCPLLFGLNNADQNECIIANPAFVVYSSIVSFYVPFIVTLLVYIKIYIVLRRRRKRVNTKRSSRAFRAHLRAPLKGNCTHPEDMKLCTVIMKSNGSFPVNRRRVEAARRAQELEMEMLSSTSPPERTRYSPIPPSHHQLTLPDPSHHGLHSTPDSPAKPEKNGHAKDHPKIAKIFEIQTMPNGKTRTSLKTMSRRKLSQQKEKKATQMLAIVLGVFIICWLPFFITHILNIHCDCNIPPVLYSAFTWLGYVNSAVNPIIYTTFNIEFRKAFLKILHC

Row | Compound | Ki | Ki (human D2 receptor, CHO K1 membranes, 0.2 nM [3H]spiperone, 60 min, 25° C., apparent Ki from IC50 (Cheng and Prusoff))
1 | Cc1ccc(N2CCN(CCC3NC(=O)c4ccccc43)CC2)cc1C (single isomer, unassigned; (-)) [(-)-3-{2-[4-(3,4-Dimethyl-phenyl)-piperazin-1-yl]-ethyl}-2,3-dihydro-isoindol-1-one] | > 5880 nM | 
2 | Cc1ccc(N2CCN(CCC3NC(=O)c4ccccc43)CC2)cc1C (centres unmarked) [3-{2-[4-(3,4-Dimethyl-phenyl)-piperazin-1-yl]-ethyl}-2,3-dihydro-isoindol-1-one] |  | 1840 nM

— patent US6087364A, “Dopamine D4 receptor antagonists” (Warner-Lambert Company, priority 1998, dated 2000)
